Screens from PubChem.
The sample as a whole holds a higher share of hits than the screen did.
HCMV NEC inh = inhibitors of HCMV UL50-UL53 nuclear egress complex interaction; HTRF UL50-UL53 interaction, normalized percent inhibition; inhibition, % (concentration not given with the values); hit rate 0.15% among 190,000; AID 1918969; in the data active = inhibition above about 27%, passing the limit was not always enough
GIV Gai3 FP = GIV-Galpha-i interaction inhibition; P08753; Galpha-i3/FITC-GIV peptide fluorescence polarization, 90 min; active compounds read low; scaled: aluminum fluoride 0%, vehicle 100%; percent of control (FP), % (no concentration beside the values); 210,000 compounds, 0.42% hits; AID 1224905;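 active means replicate mean at 85% of control or lower, very high polarization wells dropped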;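 further: wells of about 15 µL received 100 nL stock; the first replicate is given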
Each line names hits and unclear results; the compound was inactive in the other large screens.

CCOc1ccc(S(=O)(=O)N2CCN(c3cc(=O)n4nc(-c5ccccc5)sc4n3)CC2)cc1	HCMV NEC inh 45
CC(C)c1ccc(S(=O)(=O)N2CCN(c3cc(=O)n4nc(-c5ccccc5)sc4n3)CC2)cc1	HCMV NEC inh 43
Cc1cccc(-c2nn3c(=O)cc(N4CCN(S(=O)(=O)c5ccccc5C)CC4)nc3s2)c1	none
CC(C)c1cc(C2CCCN2C(=O)c2cc(C(F)(F)F)n(C)n2)on1 (stereo not drawn)	none (no result: HCMV NEC inh)
CC1CCCN(Cc2c(O)ccc3cc(-c4nc5ccccc5[nH]4)c(=O)oc23)C1 (stereo not drawn)	GIV Gai3 FP -33
CCC1CCCCN1Cc1c(O)ccc2cc(-c3nc4ccccc4[nH]3)c(=O)oc12 (stereo not drawn)	GIV Gai3 FP -42 (no result: HCMV NEC inh)
CN1CCN(Cc2c(O)ccc3cc(-c4nc5ccccc5[nH]4)c(=O)oc23)CC1	GIV Gai3 FP -75
CCOc1cccc2cc(-c3nc4ccccc4[nH]3)c(=O)oc12	none (no result: GIV Gai3 FP)
CC1CCCN(C/C(O)=C(\C#N)c2nc3ccccc3[nH]2)C1 (stereo not drawn)	none
CN1CCN(Cc2c(O)ccc3cc(-c4ccccc4)c(=O)oc23)CC1	none (no result: HCMV NEC inh)
NS(=O)(=O)c1ccc(NC(=O)Cc2csc(NC(=O)C3CC3)n2)cc1	none
N#Cc1c(-c2cccs2)cc(-c2ccc3ccccc3c2)nc1SCC(N)=O	none (no result: HCMV NEC inh)
COC(=O)c1ccc2c(c1)C1C=CCC1C(c1cccc3ccccc13)N2 (stereo not drawn)	none
O=C(O)c1ccc2c(c1)C1C=CCC1C(c1cccc3ccccc13)N2 (stereo not drawn)	HCMV NEC inh 35
CC1CC(C)CN(CCCNC(=O)CCn2cnc3onc(-c4ccc(F)cc4)c3c2=O)C1 (stereo not drawn)	none
O=C1/C(=C/c2ccc(O)cc2)SC(=S)N1CCc1ccccc1	GIV Gai3 FP -5.9 (no result: HCMV NEC inh)
CO/C=C1\SC(=S)N(CCc2ccccc2)C1=O	none
COc1ccc(S(N)(=O)=O)cc1-c1nnc2c3ccccc3c(C)nn12	none (no result: HCMV NEC inh)
COc1ccc(S(=O)(=O)N2CCOCC2)cc1-c1nnc2c3ccccc3c(C)nn12	HCMV NEC inh 54
O=C(O)c1ccccc1C1=Nc2ccc(O)cc2Oc2cc(O)ccc21	GIV Gai3 FP -91
O=C(O)c1ccccc1-c1ccccc1C(=O)O	none
CCCc1ccc(N2C(=O)CCC2=O)cc1	none
CCOC(=O)c1[nH]c(C)c(CN(Cc2ccc(OC)cc2)C(=O)Nc2cc(OC)ccc2OC)c1C	none (no result: HCMV NEC inh)
CN(C)c1ccc(C(=O)OCCOc2ccccc2F)cc1	none (no result: GIV Gai3 FP)
COc1cccc(CSc2nc3ccncc3n2Cc2ccc(C(=O)NCC3CCCO3)cc2)c1 (stereo not drawn)	none
CC(C)NC(=O)c1cn2c3c(ccc(Cl)c3c1=O)OC(C)C2 (stereo not drawn)	none
CNC(=O)c1cn2c3c(ccc(Cl)c3c1=O)OC(C)C2 (stereo not drawn)	HCMV NEC inh 50
N#C/C(=C\c1ccc(-c2ccc(F)cc2F)o1)c1nc2ccccc2[nH]1	GIV Gai3 FP -6.1
N#C/C(=C\c1ccc(-c2ccccc2C(=O)O)o1)c1nc2ccccc2[nH]1	none
Brc1cccc(COc2ccc(-c3nnco3)cc2)c1	none (no result: GIV Gai3 FP)
CCn1c2ccccc2c2cc(/C=C3\CCC(C4CCCC4)C3=O)ccc21 (stereo not drawn)	none (no result: HCMV NEC inh)
O=C1/C(=C/c2ccc(N3CCOCC3)cc2)Cc2ccccc21	GIV Gai3 FP -75 (no result: HCMV NEC inh)
O=C1NC(=O)C(=Cc2ccc(N3CCCC3)cc2)C(=O)N1	none
CN(C)c1ccc(/C=C2\CCC/C(=C\c3ccccc3)C2=O)cc1	none (no result: HCMV NEC inh)
CN(C)c1ccc(/C=C2\Cc3ccccc3C2=O)cc1	GIV Gai3 FP -75 (no result: HCMV NEC inh)
CCn1c2ccccc2c2cc(/C=C3\Cc4ccccc4C3=O)ccc21	GIV Gai3 FP -74 (no result: HCMV NEC inh)
O=C1C(=Cc2ccc(N3CCCC3)cc2)C(=O)c2ccccc21	GIV Gai3 FP -61
O=C1/C(=C/c2ccc(N3CCOCC3)cc2)CC/C1=C\c1ccc(N2CCOCC2)cc1	none (no result: HCMV NEC inh)
Fc1ccc(-c2csc3ncnc(NCCc4ccc5c(c4)OCO5)c23)cc1	none
N#CC1=C(N)S[C@@H](C(=O)c2ccccc2)[C@@H]1c1ccccc1[N+](=O)[O-]	none (no result: HCMV NEC inh)
O=C(Cn1nnc(-c2cccc(Cl)c2)n1)N1N=C(c2cccs2)CC1c1cccs1 (stereo not drawn)	none (no result: GIV Gai3 FP)
COC(=O)c1cccc(NC(=O)Nc2cccc(-c3nnc(-c4ccccc4)o3)c2)c1	none (no result: HCMV NEC inh)
COc1cc(/C=C/C(=O)/C=C/c2ccc(N(C)C)cc2)cc(OC)c1OC	GIV Gai3 FP -64 (no result: HCMV NEC inh)
CCCN(CCC)C(=O)/C=C/c1cc(OC)c(OC)c(OC)c1	none
O=C(NCc1csc(-c2ccccc2)n1)[C@H]1CSCN1C(=O)CCc1ccccc1	none (no result: HCMV NEC inh)
Cn1cnnc1Sc1ccc(Cl)cc1NC(=O)Cn1c(=O)cnc2ccccc21	none (no result: GIV Gai3 FP)
Cc1[nH]n(-c2ccccc2)c(=O)c1N=O	HCMV NEC inh 38 (no result: GIV Gai3 FP)
Cc1[nH]n(-c2ccccc2)c(=O)c1/C=N/O	none
COc1ccc(OC)c(-c2nc3c4ccccc4c4ccccc4c3[nH]2)c1	none (no result: HCMV NEC inh)
O=C(CSc1ncnc2c1sc1cccc(F)c12)NCc1ccccn1	none
COc1ccc(-c2nc3ccc(C(=O)NC4CC4)cc3nc2-c2ccc(OC)cc2)cc1	none
C=C(C)CN(CC)c1nc(N)c2c(N)nc3c(c2c1C#N)CC(=O)N3C12CC3CC(CC(C3)C1)C2	none (no result: GIV Gai3 FP)
N#Cc1c(N2CCCC(O)C2)nc(N)c2c(N)nc3c(c12)CC(=O)N3C12CC3CC(CC(C3)C1)C2 (stereo not drawn)	HCMV NEC inh 80 (no result: GIV Gai3 FP)
O=C(NCc1ccco1)c1ccc(CSc2nc3ccncc3n2Cc2ccccc2)cc1	none
Cc1noc(-c2cc(S(=O)(=O)N3CCC(C)CC3)c(C)s2)c1C	none
Cc1c(C(=O)Nc2ccccc2)sc2nc(-c3cc4ccccc4oc3=O)[nH]c(=O)c12	none
Cc1ccc(NC(=O)c2sc3nc(-c4cc5ccccc5oc4=O)[nH]c(=O)c3c2C)c(C)c1	GIV Gai3 FP 25
Cc1cccc(Cn2cccc2CNS(C)(=O)=O)c1	none
Clc1cc2c(cc1C=Nc1ccc(N3CCOCC3)cc1)OCO2	none
CCc1ccc2nc(Nc3nc4ccccc4c(=O)[nH]3)nc(C)c2c1	none (no result: HCMV NEC inh)
CCc1ccc2c(C)nc(NC3=NC(C)(C)C=C(C)N3)nc2c1	HCMV NEC inh 49 (no result: GIV Gai3 FP)
Cc1csc(-c2cc(S(=O)(=O)N3CCN(Cc4ccc5c(c4)OCO5)CC3)c(C)s2)n1	GIV Gai3 FP -0.1 (no result: HCMV NEC inh)
Cc1cc(C)c(S(=O)(=O)N2CCN(Cc3ccc4c(c3)OCO4)CC2)cc1C	none
CCCN1CCc2c(sc(NC(=S)NC(=O)c3ccccc3)c2C#N)C1	GIV Gai3 FP -59 (no result: HCMV NEC inh)
CC(=O)N1CCc2c(sc(NC(=O)c3ccc(C#N)cc3)c2C#N)C1	none (no result: GIV Gai3 FP)
O=C1c2ccccc2-[n+]2ccc3c([nH]c4ccccc43)c21	HCMV NEC inh 61 (no result: GIV Gai3 FP)
O=C1C(c2c(O)[nH]c3ccccc23)=Nc2ccccc21	none (no result: GIV Gai3 FP)
O=C1COc2ccc(NC(=O)c3ccc(Cl)cc3)cc2N1	none
COc1ccc(CN2C(=O)NC(=O)/C(=C\c3cc(OC)ccc3OC)C2=O)cc1	HCMV NEC inh 83
COc1ccc(/C=C2/C(=O)NC(=O)N(c3ccc(Br)cc3)C2=O)c(OC)c1	none
CCC(=O)Nc1ncnc2oc(-c3ccccc3)c(-c3ccccc3)c12	none (no result: HCMV NEC inh)
Cc1ccc2nc3sc(C(=O)O)c(N)c3cc2c1	none
Cc1cc(C)c2nc3sc(C(=O)N4CCOCC4)c(N)c3cc2c1	GIV Gai3 FP -49
Nc1c(C(=O)N2CCOCC2)sc2nc3c(cc12)CCCC3	none
COc1ccc2nc3sc(C(=O)N4CCCC4)c(N)c3cc2c1	GIV Gai3 FP -62
